{
  "source": "patent US7834174B2",
  "about": "“Per-6-guanidino-, alkylamino-cyclodextrins, methods of their synthesis and their use for the compaction of DNA and intercellular delivery” (priority 2004, dated 2010)",
  "key": {"[1]": {"system": "DNA", "assay": "DNA-bguan interaction by UV absorption spectra", "conditions": "1 equivalent bguan, buffer solution"}, "[2]": {"assay": "Solubility in water"}, "[3]": {"system": "ultrapure calf thymus DNA 13 kb", "assay": "DNA compaction: electrophoresis in agarose gel with ethidium bromide as stain", "type": "binding"}},
  "data": [
    {"substance": "Heptakis(6-deoxy-6-guanidino)-β-cyclodextrin", "values": [
      {"measurement": "absorption maximum and shape of the absorbance curve of DNA", "setting": "[1]", "result": "changed appreciably"},
      {"measurement": "solubility in water", "setting": "[2]", "result": 59, "unit": "mM"},
      {"measurement": "mass/charge ratio at which the compound compacts DNA", "setting": "[3]; ratio mass/charge of compound to that of DNA, agarose gel electrophoresis", "result": "≤ 0.45"},
      {"measurement": "mobility of DNA during electrophoresis", "setting": "[3]; wells c and d (bguan 10 λ and 5 λ of 1.01×10^−4 M, DNA 1 λ)", "result": "completely stalled"},
      {"measurement": "mobility of DNA during electrophoresis", "setting": "[3]; wells e and f (bguan 1 λ and 1 λ of stock diluted 1:10, DNA 1 λ)", "result": "partial inhibition"}
    ]}
  ]
}
